Assay [1] deals with uveal melanoma cell lines (OCM-1, OCM-3, 92-1 and mel 202). Description: Survival / cell death of the four uveal melanoma cell lines. Format: cell-based, human. The following applies: all 4 uveal melanoma cell lines; read-out: IC50 for survival, range over the 4 uveal melanoma cell lines.
The test system of assay [2] is UM 92-1 cells.

The values that follow come from patent US20060111363A1, “Treatment of uveal melanoma” (priority 2002, published 2006).

Molecules are shown by their SMILES.

As a reminder, the IC50 is the concentration needed to halve the response being measured.

Regarding `CS(=O)(=O)O.Cc1ccc(NC(=O)c2ccc(CN3CCN(C)CC3)cc2)cc1Nc1nccc(-c2cccnc2)n1` [Salt I], the IC50 in assay [1] is 70 to 1250 nM; in assay [2] (read-out: IC50 of Salt I on survival, uveal melanoma cell line UM 92-1, Example 1: 48 hours exposure) it was 1250 nM. In addition, the “percentages of living cells as compared to 100% survival of untreated cells” value in assay [2] (UM 92-1, 24 h, 0.6 μM Salt I, runs 1 and 2) was found to be 102%.
